One compound from patent publication US20120220581A1, “IMIDAZO[1,2-b]PYRIDAZINE DERIVATIVES AND THEIR USE AS PDE10 INHIBITORS” (Janssen-Cilag, S.A., priority 2009, published 2012) can be followed below.

For assay [1], the target named is T1, Rat recombinant PDE10A (rPDE10A2) (Rattus norvegicus, UniProt Q9QYJ6).
T1 construct: inferred from the Ni metal chelate purification; made in house; host or cells: Sf9 insect cells (baculovirus)
T1 sequence (Q9QYJ6 1-794): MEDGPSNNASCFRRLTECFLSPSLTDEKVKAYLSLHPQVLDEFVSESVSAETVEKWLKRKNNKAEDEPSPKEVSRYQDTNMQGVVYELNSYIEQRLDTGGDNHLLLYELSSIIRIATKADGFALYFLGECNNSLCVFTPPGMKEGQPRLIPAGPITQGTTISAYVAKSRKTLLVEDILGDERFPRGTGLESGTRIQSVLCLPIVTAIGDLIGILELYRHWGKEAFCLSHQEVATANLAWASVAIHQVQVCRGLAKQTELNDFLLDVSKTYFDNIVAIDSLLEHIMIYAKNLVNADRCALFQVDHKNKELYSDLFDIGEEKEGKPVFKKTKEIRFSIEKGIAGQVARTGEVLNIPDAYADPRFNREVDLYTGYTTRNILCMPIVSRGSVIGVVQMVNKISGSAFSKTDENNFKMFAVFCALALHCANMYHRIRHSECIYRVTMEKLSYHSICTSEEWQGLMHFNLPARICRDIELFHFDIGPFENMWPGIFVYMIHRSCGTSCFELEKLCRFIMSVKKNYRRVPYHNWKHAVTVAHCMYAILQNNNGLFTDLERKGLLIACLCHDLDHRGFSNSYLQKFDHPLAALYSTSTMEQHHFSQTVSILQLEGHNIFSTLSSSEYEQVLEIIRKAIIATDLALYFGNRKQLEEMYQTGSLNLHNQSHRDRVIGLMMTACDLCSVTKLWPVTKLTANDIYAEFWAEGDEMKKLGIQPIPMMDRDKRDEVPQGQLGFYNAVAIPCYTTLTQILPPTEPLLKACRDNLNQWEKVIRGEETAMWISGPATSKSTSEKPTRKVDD
The assay can be described thus: In vitro assay PDE10A (SPA, 3H-cAMP). The class given is biochemical. Here is the method:
Rat recombinant PDE10A (rPDE10A2) was expressed in Sf9 cells using a recombinant rPDE10A baculovirus construct. Cells were harvested after 48 h of infection and the rPDE10A protein was purified by metal chelate chromatography on Ni-sepharose 6FF. Tested compounds were dissolved and diluted in 100% DMSO to a concentration 100 fold of the final concentration in the assay. Compound dilutions (0.4 μl) were added in 384 well plates to 20 μl of incubation buffer (50 mM Tris pH 7.8, 8.3 mM MgCl2, 1.7 mM EGTA). 10 μl of rPDE10A enzyme in incubation buffer was added and the reaction was started by addition of 10 μl substrate to a final concentration of 60 nM cAMP and 0.008 μCi ^3H-cAMP. The reaction was incubated for 60 minutes at room temperature. […] After sedimentation of the beads during 30 minutes the radioactivity was measured in a Perkin Elmer Topcount scintillation counter and results were expressed as cpm. For blanc values the enzyme was omitted from the reaction and replaced by incubation buffer. Control values were obtained by addition of a final concentration of 1% DMSO instead of compound. The same assay principle is applied for the measurement of the affinity of the compound for other members of the PDE family with appropriate modifications in incubation buffer, substrate concentration, incubation time and stop solution.

Assay [2] concerns female hooded-Lister rats. The assay can be described thus: Object recognition test (NOR) after sub-chronic PCP. The format is in vivo, rat. To be noted: mean. Here is the method:
60 female hooded-Lister rats (Charles River, UK) were used as subjects for these studies and weighed 248 g±20 g. Rats were allowed at least a 7-day acclimatization period to the animal unit prior to commencement of experimentation. Rats were housed in groups of 5 under standard laboratory conditions under a 12 h light:dark cycle, lights on at 0700 h. All testing was carried out in the light phase. Food and water were freely provided. All experiments were conducted in accordance with the Animals Scientific Procedures Act, U.K. 1986 and were approved by the University of Bradford ethical review panel.
40 mg of test compound was dissolved in 5 ml of 40% hydroxypropyl β-cyclodextrin (HPBC) solution. […] 2 ml of sterile water was added and the pH measured and adjusted with NaOH solution (0.1N) to obtain pH ˜4. […] 5 ml of sterile water was added and the pH measured and adjusted with NaOH solution (0.1N) to obtain pH ˜4. […]
Certain pre-clinical tests allow the observation of relatively subtle cognitive deficits in the rat that resemble cognitive symptoms in subjects with schizophrenia. The cognitive deficits observed are seen in behaviours such as episodic memory, which can be measured by recognition tasks such as the novel object recognition (NOR) paradigm. […] Object recognition in rats can be measured as the difference in time spent exploring the familiar and the new object. […]

Read-outs that look alike come from different tables or passages of the source.

On to `COCCc1ccc(-c2c(C)nc3c(N4CCOCC4)ccnn23)cn1` [compound 1, 3-[6-(2-methoxyethyl)-3-pyridinyl]-2-methyl-8-(4-morpholinyl)-imidazo[1,2-b]pyridazine], for which the IC50 in assay [1] (Table 4 in vitro selectivity, read-out: PDE 10A2 (expressed as pIC50) (converted)) is 57.5 nM; in assay [1] (pIC50 corresponds to the −log IC50 expressed in mol/L, read-out: PDE10A2 pIC50 (converted)) it was 57.5 nM. The results for the “DI (discrimination index)” value in assay [2] (PCP + 0.3 mg/kg p.o.) and in assay [2] (PCP + 1 mg/kg p.o.) were 0.3014 and 0.3335, respectively.
